From patent US6667306B1, “Platelet ADP receptor inhibitors” (Millennium Pharmaceuticals, Inc., priority 1998, dated 2003)

Protein sequences, listed by entry. Tags and fused reporters are not part of them. Lines headed by an entry give the natural chain unless they say otherwise; changes in a name come on top.
UniProt P47900: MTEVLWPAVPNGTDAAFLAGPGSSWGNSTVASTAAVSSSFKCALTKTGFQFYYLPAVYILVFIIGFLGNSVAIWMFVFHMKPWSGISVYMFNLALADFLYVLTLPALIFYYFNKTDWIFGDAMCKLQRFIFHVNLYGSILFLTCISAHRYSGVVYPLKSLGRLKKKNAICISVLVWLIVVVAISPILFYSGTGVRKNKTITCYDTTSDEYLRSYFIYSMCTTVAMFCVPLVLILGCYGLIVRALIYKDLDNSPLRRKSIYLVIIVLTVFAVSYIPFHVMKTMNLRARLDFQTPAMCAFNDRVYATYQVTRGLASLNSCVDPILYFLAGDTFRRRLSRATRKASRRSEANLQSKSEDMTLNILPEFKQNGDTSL

Target: T1, human P2Y1 receptor (hP2Y1) (Homo sapiens, UniProt P47900)
T1 construct: a genomic fragment encompassing the entire open reading frame of the human P2Y1 receptor; expressed in transfected cells; host or cells: Jurkat cells, clonal line hP2Y1-JA7, vector pcINeo
Assay: hP2Y1 receptor activity assay (2-MeS-ADP-induced intracellular calcium mobilization in hP2Y1-JA7 Jurkat cells)
Type: cell-based
Settings: platelet aggregation IC50 versus hP2Y1 IC50

CCOc1ccc2c(c1)SC1=NS(=O)(=O)C(C(=O)CS(=O)(=O)Nc3nc4ccc(OCC)cc4s3)=C(O)N12 [Compound 1, N^1-(6-Ethoxy-1,3-benzothiazol-2-yl)-2-(8-ethoxy-4-hydroxy-2,2-dioxo-2H-2l^6-benzo[4,5][1,3]thiazolo[2,3-c][1,2,4]thiadiazin-3-yl)-2-oxo-1-ethanesulfonamide]
selectivity for platelet ADP receptors mediating aggregation over hP2Y1: about 1000 fold
